Earlier results, collected in US20170340648A1, “Pharmaceutical Compositions Affecting Bioenergetic Processes in a Eukaryotic Biological System and Methods of Treatment” (JOYCE BIOTECH CORP., priority 2016, published 2017).

Conditions: cited from earlier work

CN(C)C(=N)N=C(N)N [metformin, 3-(diaminomethylidene)-1,1-dimethylguanidine]
plasma concentration, change in NASH: increasing
